Laboratory results: US20190307754A1, “PDE9 INHIBITORS FOR TREATMENT OF PERIPHERAL DISEASES” (IMARA, INC., priority 2016, published 2019)

Columns and labels:
[1] = Plasma, brain and eye exposure in C57Bl/6J mice; format: in vivo; conditions: male, mouse, oral, gavage, Day 5, 30 minutes after dosing
Experimental: The exposure of both compounds was also evaluated in the plasma, brain, and eye. A total of 75 male C57Bl/6J mice, aged 7-8 weeks, were divided into 5 groups each of 15 males, and were dosed by gavage, once daily for 5 days, with either vehicle, Compound P3.1 at 10 or 30 mg/kg/day or AF27873 at 10 or 30 mg/kg/day. During the treatment period all animals were assessed for contextual fear conditioning and a subset of 7 animals per group was evaluated for locomotor activity. On Day 5, plasma, brain, and eye tissue were collected 30 minutes after dosing from 3 animals per treated group to measure concentrations of test item.

[2] = in vivo; conditions: male, CD, mouse, sc, 10 mg/kg

C[C@@H]1CN(Cc2ncccn2)C[C@H]1c1nc2c(cnn2C2CCOCC2)c(=O)[nH]1 (single isomer, unassigned) [AF27873, reference compound]
concentration at 30 min ([1]; 10 mg/kg/day): 3.22 µM
concentration at 30 min ([1]; 30 mg/kg/day): 13.1 µM
Kp at 0.5 h ([2]; brain): 0.41
Kp at 2 h ([2]; brain/plasma): 0.41
